# Results: PubChem BioAssay AID449768 (Vanderbilt High Throughput Screening Facility, 2010)
# By UniProt entry, the sequences of proteins in these tests, tags left out.
# UniProt Q01959, whole entry, looked up: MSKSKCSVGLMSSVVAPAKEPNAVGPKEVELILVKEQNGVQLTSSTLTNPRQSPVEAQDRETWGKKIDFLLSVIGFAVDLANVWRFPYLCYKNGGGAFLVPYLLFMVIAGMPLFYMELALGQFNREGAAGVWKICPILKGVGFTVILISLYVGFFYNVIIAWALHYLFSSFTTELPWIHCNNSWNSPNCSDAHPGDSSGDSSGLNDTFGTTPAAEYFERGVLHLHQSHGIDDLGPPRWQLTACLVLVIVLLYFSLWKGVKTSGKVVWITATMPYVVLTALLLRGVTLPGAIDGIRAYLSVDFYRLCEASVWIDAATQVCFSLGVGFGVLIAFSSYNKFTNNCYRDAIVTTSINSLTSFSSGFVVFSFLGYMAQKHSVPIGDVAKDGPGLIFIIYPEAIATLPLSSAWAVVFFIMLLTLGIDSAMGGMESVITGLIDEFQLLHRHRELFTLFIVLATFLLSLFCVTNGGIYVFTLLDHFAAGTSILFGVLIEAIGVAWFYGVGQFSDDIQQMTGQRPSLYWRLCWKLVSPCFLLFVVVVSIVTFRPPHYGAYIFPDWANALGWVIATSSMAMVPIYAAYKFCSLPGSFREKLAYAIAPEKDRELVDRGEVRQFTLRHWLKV
# This is a selection; strong and weak results do not stand in their true shares. Active and inactive are the calls of the source.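 Rule for the calls: active = Z score or B-score, a plate-position-corrected score, falls beyond the plate's 99.7% confidence bounds, in either direction; inactive = both scores lie inside the 99.7% bounds.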
# Target: Sodium-dependent dopamine transporter (Homo sapiens) (UniProt Q01959)
# Test: changed hDAT dopamine uptake under cocaine IC80, either direction, primary screen, cocaine antagonist project, cell-based, LLC-PK1 hDAT, [14C]-dopamine uptake, MLSMR (AID 449768);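 note: scored against the spread of the other compound wells on the same plate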
# Conditions: LLC-PK1 hDAT cells, [14C]-dopamine uptake with cocaine IC80; at 10 µM; actives deviate in either direction
row,Compound,B-score
1,O=P1(Nc2ncccn2)COc2ccccc2OC1,inactive: 0.249
2,Cc1ccc(OCC(=O)OC2CN3CCC2CC3)cc1 (stereo not given),inactive: 0.455
3,O=P1(Nc2ccc(Br)cn2)COc2ccccc2OC1,inactive: -1.12
4,Cc1nn(-c2ccccc2)c2c1P(=O)(N1CCOCC1)N(C)C(c1ccccc1)=N2 (stereo not given),inactive: -0.515
5,CC1(CBr)Cn2c(nc3ccccc3c2=O)S1 (stereo not given),inactive: 0.886
6,CN(C(=O)Cc1ccc(Cl)c(Cl)c1)[C@@H]1CCCC[C@H]1N1CCCC1,inactive: -0.253
7,CN(CCCl)Cc1cc(Cl)c(NC2=NCCN2)c(Cl)c1,inactive: 0.00169
8,O=P1(Nc2ccccn2)COc2ccccc2OC1,inactive: -1.2
9,Clc1n[nH]nc1-c1nn[nH][15n]1,inactive: -1.51
10,Cc1cccc(OCC(=O)OC2CN3CCC2CC3)c1 (stereo not given),inactive: 0.315
11,NC(=O)Nc1ccc([As](=O)(O)O)cc1,inactive: -1.22
12,CN(C(=O)Cc1ccc(Cl)c(Cl)c1)[C@H]1CC[C@@]2(CCCO2)C[C@@H]1N1CCCC1,inactive: 0.0959
13,O=[N+]([O-])c1ccc2c(c1)nnn2O,inactive: -1.22
14,CCOP1(=S)c2c(C)nn(CCC#N)c2N=C(c2ccc(F)cc2)N1C (stereo not given),inactive: 0.0242
15,CN(C(=O)Cc1ccccc1)[C@@H]1CC[C@]2(CCCO2)C[C@H]1N1CCCC1,inactive: 0.0851
16,O=P(Nc1nccs1)(c1ccccc1)c1nc2ccccc2s1 (stereo not given),inactive: 0.372
17,CCOP1(=S)c2c(C)nn(CCC#N)c2N=C(c2ccccc2F)N1C (stereo not given),inactive: 0.208
18,ClCCSc1nnc(-c2cccnc2)o1,inactive: 1.87
19,CCN(CC)C(=S)SC(NC=O)C(Cl)(Cl)Cl (stereo not given),inactive: 0.866
20,CC(Cc1ccc(O)cc1)NCC(O)c1cc(O)cc(O)c1 (stereo not given),inactive: -0.54
21,O=C(OC1CN2CCC1CC2)C12CC3CC(CC(C3)C1)C2 (stereo not given),inactive: -0.00467
22,CCC(C)N(CC(C)C)C(=S)SC(NC(C)=O)C(Cl)(Cl)Cl (stereo not given),inactive: -0.0708
23,COP1(=S)c2c(C)nn(CCC#N)c2N=C(c2ccc(F)cc2)N1C (stereo not given),inactive: -0.648

row,Compound,B-score
1,O=C(COc1ccccc1)OC1CN2CCC1CC2 (stereo not given),inactive: 0.199
2,CC1CCN(C(=O)Oc2c(Cl)cc(Cl)c3cccnc23)CC1,inactive: 0.0843
3,CC(=O)N1C2C3N(C(C)=O)C1C1N(C(C)=O)C(C(N1C(C)=O)N3C(C)=O)N2C(C)=O,inactive: -2
4,O=[N+]([O-])c1cccc2n[nH]nc12,inactive: -0.565
5,CCc1nc2c(n1)c1c(non1O)c1c2no[n+]1[O-],inactive: -0.413
6,CC(C)CC(=O)NC(Sc1ccc(Cl)cc1)C(Cl)(Cl)Cl (stereo not given),inactive: -0.595
7,Cc1c2non([O-])c-2c(C)[n+](=O)[n+]1[O-],inactive: -1.42
8,Oc1ccccc1CNc1ccccn1,inactive: -0.0311
9,CN1CCCC(OC(=O)C(c2ccccc2)c2ccccc2)C1 (stereo not given),inactive: -0.616
10,CN(C(=O)Cc1ccc(Cl)c(Cl)c1)[C@H]1CCCC[C@@H]1N1CCCC1,inactive: 0.593
11,CCOP(=O)(Nc1ccccc1)OCC,inactive: 0.00983
12,COC(=O)c1cc2c(s1)N=C(c1ccccc1)N(C)P2(=O)N1CCOCC1 (stereo not given),inactive: 0.891
13,CCC(=O)N1C2C3N(C(=O)CC)C1C1N(C(=O)CC)C(C(N1C(=O)CC)N3C(=O)CC)N2C(=O)CC,inactive: -0.514
14,CCOC(=O)NC(Sc1ccccc1)C(Cl)(Cl)Cl (stereo not given),inactive: 0.289
15,C[C@H]1OP(=O)(Oc2ccccc2)C[C@@H]2O[C@@H]21 (stereo not given in full),inactive: -0.00917
16,C[C@@H]1C=CCP(=O)(Oc2ccccc2)O1 (stereo not given in full),inactive: -0.123
17,O=P1(Nc2nc3ccc(Cl)cc3s2)COc2ccccc2O1 (stereo not given),inactive: -0.948
18,COc1ccc(C[C@H](C)NC[C@@H](O)c2ccc(O)c(NC=O)c2)cc1,inactive: 0.691
19,O=P(Nc1nccs1)(c1ccccc1)c1ccccc1,inactive: -0.479
20,c1nnnn1CCn1cnnn1,inactive: 0.429
21,O=C(OC1CN2CCC1CC2)c1cccc(Cl)c1 (stereo not given),inactive: 0.00604
22,C[C@H]1OP(=O)(Oc2ccccc2)[C@H](O)[C@H](O)[C@H]1N=[N+]=[N-] (stereo not given in full),inactive: -0.255
